In patent US9962369B2, “Methods and compositions for transdermal delivery” (SPRAYABLE HOLDINGS, INC., priority 2014, dated 2018):

Assay: Transdermal delivery of melatonin: plasma level of melatonin after applying composition to skin of a subject
Details: human, topical, 3 mg, Leucine methyl ester hydrochloride 385.28 mM, 0.60 mL applied to skin

concentration at 0 h (0 hr after transdermal administration): 0 ng/mL
concentration at 1 h (1 hr after transdermal administration): 1.5 ng/mL
concentration at 2 h (2 hr after transdermal administration): 1.7 ng/mL
concentration at 4 h (4 hr after transdermal administration): 1.8 ng/mL
concentration at 8 h (8 hr after transdermal administration): 1.8 ng/mL
SMILES: COc1ccc2[nH]cc(CCNC(C)=O)c2c1 [Melatonin]
